Source: US9433616B2, “Methods and compositions for decreasing saliva production” (priority 2005, dated 2016)

Tested on: Parkinson's Disease (PD) patients suffering from sialorrhea
Conditions: human, in vivo
Source text: They were instructed to apply the drops to their tongues on an as needed basis.

## CCN(Cc1ccncc1)C(=O)C(CO)c1ccccc1 (stereo not shown) [tropicamide, N-ethyl-N-(4-pyridylmethyl) tropamide]
  patient-reported usefulness of treatment: treatment was useful
